In PubChem BioAssay (EPA / NIEHS) one finds outcome and AC50 data, which are given here for six molecules.

By UniProt entry, the sequences of proteins in these tests, tags left out.
UniProt P16581, whole entry: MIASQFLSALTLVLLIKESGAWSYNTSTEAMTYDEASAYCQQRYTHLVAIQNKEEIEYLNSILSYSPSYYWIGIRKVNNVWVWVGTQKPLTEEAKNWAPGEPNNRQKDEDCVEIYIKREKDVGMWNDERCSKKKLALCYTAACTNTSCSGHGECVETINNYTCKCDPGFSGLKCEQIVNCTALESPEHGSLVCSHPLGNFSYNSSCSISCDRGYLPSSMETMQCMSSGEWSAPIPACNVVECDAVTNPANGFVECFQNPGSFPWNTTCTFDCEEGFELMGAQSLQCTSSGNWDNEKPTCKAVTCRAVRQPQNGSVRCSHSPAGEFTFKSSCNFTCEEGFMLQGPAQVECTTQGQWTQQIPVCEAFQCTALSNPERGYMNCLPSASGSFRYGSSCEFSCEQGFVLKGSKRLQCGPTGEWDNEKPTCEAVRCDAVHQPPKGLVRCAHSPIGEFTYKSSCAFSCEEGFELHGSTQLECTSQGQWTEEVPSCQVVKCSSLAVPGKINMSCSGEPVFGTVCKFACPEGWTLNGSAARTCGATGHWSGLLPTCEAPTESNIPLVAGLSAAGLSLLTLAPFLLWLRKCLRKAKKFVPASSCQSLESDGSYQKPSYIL
UniProt Q13131, whole entry: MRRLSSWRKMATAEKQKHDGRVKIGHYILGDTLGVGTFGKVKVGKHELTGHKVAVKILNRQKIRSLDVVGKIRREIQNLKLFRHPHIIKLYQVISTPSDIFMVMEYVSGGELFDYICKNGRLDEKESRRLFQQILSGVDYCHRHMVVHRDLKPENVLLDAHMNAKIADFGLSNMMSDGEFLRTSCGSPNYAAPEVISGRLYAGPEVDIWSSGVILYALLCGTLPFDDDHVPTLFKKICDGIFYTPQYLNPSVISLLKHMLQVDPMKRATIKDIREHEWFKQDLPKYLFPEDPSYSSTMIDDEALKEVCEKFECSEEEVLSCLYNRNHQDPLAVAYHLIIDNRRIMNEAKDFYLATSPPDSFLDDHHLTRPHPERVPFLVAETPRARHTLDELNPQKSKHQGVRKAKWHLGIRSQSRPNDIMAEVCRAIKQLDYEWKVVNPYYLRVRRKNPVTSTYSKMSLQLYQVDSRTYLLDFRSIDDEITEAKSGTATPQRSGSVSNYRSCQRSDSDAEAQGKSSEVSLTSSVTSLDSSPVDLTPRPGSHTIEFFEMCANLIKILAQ
UniProt P42575, whole entry: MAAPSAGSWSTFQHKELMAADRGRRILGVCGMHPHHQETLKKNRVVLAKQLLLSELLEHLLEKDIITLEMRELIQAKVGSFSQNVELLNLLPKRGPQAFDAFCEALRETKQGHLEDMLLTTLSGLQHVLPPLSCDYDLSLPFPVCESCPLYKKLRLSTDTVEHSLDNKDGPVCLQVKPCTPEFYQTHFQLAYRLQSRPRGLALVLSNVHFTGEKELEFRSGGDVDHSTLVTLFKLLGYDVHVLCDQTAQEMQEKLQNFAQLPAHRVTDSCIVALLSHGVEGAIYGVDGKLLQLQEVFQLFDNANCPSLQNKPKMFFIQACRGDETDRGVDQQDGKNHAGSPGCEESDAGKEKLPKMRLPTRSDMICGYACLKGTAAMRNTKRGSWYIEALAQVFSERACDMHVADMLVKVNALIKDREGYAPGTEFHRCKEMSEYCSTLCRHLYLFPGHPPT
UniProt P11712, whole entry: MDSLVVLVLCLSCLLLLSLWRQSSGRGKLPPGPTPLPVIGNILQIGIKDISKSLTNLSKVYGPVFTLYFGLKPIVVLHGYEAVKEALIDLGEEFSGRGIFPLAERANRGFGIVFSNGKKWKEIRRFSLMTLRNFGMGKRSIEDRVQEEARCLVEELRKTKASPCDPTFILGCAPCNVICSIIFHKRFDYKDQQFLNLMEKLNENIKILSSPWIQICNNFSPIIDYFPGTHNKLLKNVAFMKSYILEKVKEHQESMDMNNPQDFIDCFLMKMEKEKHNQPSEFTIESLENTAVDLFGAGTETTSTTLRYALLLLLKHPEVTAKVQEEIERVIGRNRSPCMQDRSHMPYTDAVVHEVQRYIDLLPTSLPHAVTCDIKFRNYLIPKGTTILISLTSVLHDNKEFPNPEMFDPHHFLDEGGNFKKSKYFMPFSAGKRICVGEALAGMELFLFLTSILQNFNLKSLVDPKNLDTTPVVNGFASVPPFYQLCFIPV
UniProt Q92851, whole entry: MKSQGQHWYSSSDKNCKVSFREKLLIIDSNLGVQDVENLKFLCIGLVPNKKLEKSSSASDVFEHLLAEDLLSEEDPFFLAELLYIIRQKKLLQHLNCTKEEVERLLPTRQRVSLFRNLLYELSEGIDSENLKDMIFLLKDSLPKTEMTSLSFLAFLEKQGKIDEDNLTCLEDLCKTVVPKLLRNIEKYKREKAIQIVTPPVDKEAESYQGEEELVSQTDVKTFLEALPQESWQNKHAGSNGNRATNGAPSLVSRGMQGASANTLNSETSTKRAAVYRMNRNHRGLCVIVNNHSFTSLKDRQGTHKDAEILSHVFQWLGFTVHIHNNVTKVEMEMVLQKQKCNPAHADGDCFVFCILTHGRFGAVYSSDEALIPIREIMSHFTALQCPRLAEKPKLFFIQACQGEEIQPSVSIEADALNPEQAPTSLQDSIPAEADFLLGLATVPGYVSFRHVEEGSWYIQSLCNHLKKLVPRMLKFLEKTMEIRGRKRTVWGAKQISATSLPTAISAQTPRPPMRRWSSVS

Read-out in assay [1]: E-selectin (Homo sapiens) (UniProt P16581)
Description: BSK_SAg_Eselectin: BioMAP Diversity Plus: SAg Assay for Eselectin Biomarker Activity (AID 2283091). The settings on record: actives raise or lower the signal; primary human HUVEC with PBMC. In a few lines: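 HUVEC co-cultured with PBMC, compound dosed then read at 24 h; E-selectin measured by ELISA. Activity fitted bidirectionally against DMSO as negative control and baseline.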

Read-out in assay [2]: Monokine induced gamma interferon (MIG), CXCL9 (gene 4283)
The assay is described as follows: BSK_SAg_MIG: BioMAP Diversity Plus: SAg Assay for Monokine induced gamma interferon (MIG) Biomarker Activity (AID 2283092). The following applies: actives raise or lower the signal; primary human HUVEC with PBMC. In a few lines: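 ELISA readout of MIG/CXCL9; primary human umbilical vein endothelial cells co-cultured with peripheral blood mononuclear cells; 24 h post-dose; gain/loss fit vs DMSO baseline.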

Assay [3] is described as follows: BSK_SAg_PBMCCytotoxicity: PBMC Cytotoxicity Assessment in the BioMAP Diversity Plus: SAg Assay (AID 2283093).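 Also: PBMC viability measured as Alamar Blue reduction fluorescence at 546/580 nm; fitted both ways against DMSO so a hit may be loss or gain of signal.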 The settings on record: primary human HUVEC with PBMC. In a few lines:
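Alamar Blue reduction (6 h, 546/580 nm) reports PBMC cytotoxicity after 90 h superantigen activation (SEB, TSST-1; 20 ng/mL final each) with 1 h compound pre-treatment. Gain or loss of signal fitted versus DMSO.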

Read-out in assay [4]: Interleukin-8 (IL8), CXCL8 (gene 3576)
Description: BSK_SAg_IL8: BioMAP Diversity Plus: SAg Assay for Interleukin-8 (IL8) Biomarker Activity (AID 2283094). The following applies: actives raise or lower the signal; primary human HUVEC with PBMC. A digest of the protocol: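 Primary human endothelial cells with PBMC, exposed 24 h; IL-8 determined by ELISA, analysed bidirectionally relative to DMSO.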

A short description of assay [5]: BSK_SAg_Proliferation: Cell Proliferation Assessment in the BioMAP Diversity Plus: SAg Assay (AID 2283095).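 Also: relative cell number as total protein by SRB absorbance in sub-confluent culture.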 The settings on record: primary human HUVEC with PBMC. A digest of the protocol:
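A human primary co-culture of umbilical vein endothelium and blood mononuclear cells receives compound; relative cell number is quantified at 96 h by SRB staining and 560 nm absorbance, with DMSO-referenced bidirectional curve fitting.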

Assay [6] is described as follows: BSK_SAg_SRB: Viability Assessment in the BioMAP Diversity Plus: SAg Assay (AID 2283096).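 Also: cells read one day after compound addition; hits may be either gain or loss of signal compared with DMSO.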 The following applies: primary human HUVEC with PBMC. In a few lines: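 This overt-cytotoxicity endpoint quantifies protein in human endothelial/PBMC co-cultures at 24 h using SRB absorbance (560 nm) after trichloroacetic acid fixation. Values reflect signal change from the DMSO negative control, fitted bidirectionally.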

For assay [7], the target named is human AMP-activated Protein Kinase, alpha 1 (AMPKa1), PRKAA1 (gene 5562) (UniProt Q13131). Description: NVS_ENZ_hAMPKa1: NovaScreen (NVS) Enzymatic Assay for human AMP-activated Protein Kinase, alpha 1 (AMPKa1) (AID 2283130; active = hit-call score of the fitted dose curve at least 0.9, where 1 is the maximum). A digest of the protocol:
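Compounds were screened in duplicate at 25 uM, and those reaching ~30% inhibition were titrated up to 50 uM. The enzyme was recombinant human AMPKα1, and kinase turnover was read by fluorescence/mobility shift 1 h post-dosing as loss of signal versus DMSO.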

The target in assay [8] is human Caspase 2 (CASP2), CASP2 (gene 835) (UniProt P42575). Description: NVS_ENZ_hCASP2: NovaScreen (NVS) Enzymatic Assay for human Caspase 2 (CASP2) (AID 2283135; active = hit-call score of the fitted dose curve at least 0.9, where 1 is the maximum). On the procedure:
NVS_ENZ_hCASP2 is a biochemical, single-readout assay that uses extracted gene-proteins from E. coli in a cell-free assay. Measurements were taken 1 hour after chemical dosing in a 96-well plate.NVS_ENZ_hCASP2 is one of one assay component(s) measured or calculated from the NVS_ENZ_hCASP2 assay. It is designed to make measurements of enzyme activity, a form of enzyme reporter, as detected with fluorescence intensity signals by Fluorescence technology.Data from the assay component NVS_ENZ_hCASP2 was analyzed into 1 assay endpoint. This assay endpoint, NVS_ENZ_hCASP2, was analyzed in the positive analysis fitting direction relative to DMSO as the negative control and baseline of activity. […] Furthermore, this assay endpoint can be referred to as a primary readout, because this assay has produced multiple assay endpoints where this one serves a enzymatic activity function. […]
Binding assays used specific radioligands (tritiated, iodinated) with non-radioactive competitive displacement ligands in agonist or antagonist protocols (as indicated) and various reference compounds and inhibitors to titrate specific binding to receptors and transporters. Most enzyme assays (CYPs, kinases, phosphatases, proteases, HDACs) used recombinant protein and specific substrates (fluorescence mostly, some colorimetric and radioactive) and inhibitors, followed by a biochemical separation of substrate and product. […]

Assay [9] addresses human CYP2C9, CYP2C9 (gene 1559) (UniProt P11712). The assay is described as follows: NVS_ADME_hCYP2C9: NovaScreen (NVS) CYP450-related Enzyme Activity (ADME) Assay for human CYP2C9 (AID 2283108; active = hit-call score of the fitted dose curve at least 0.9, where 1 is the maximum). A digest of the protocol: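 Cell-free assay of recombinant human CYP2C9 produced in Sf9 cells, with enzyme activity read by fluorescence intensity 0.75 h after compound addition. Loss of signal versus an acetonitrile negative control indicates inhibition. Primary screen used 10 uM in duplicate; actives were retested in concentration series.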

Assay [10] concerns the target human Caspase 10 (CASP10), CASP10 (gene 843) (UniProt Q92851). Description: NVS_ENZ_hCASP10: NovaScreen (NVS) Enzymatic Assay for human Caspase 10 (CASP10) (AID 2283133; active = hit-call score of the fitted dose curve at least 0.9, where 1 is the maximum). In a few lines: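 Fluorescence-intensity enzyme read-out of E. coli-expressed CASP10 activity, 1 h after compound. Single-point duplicates at 25 uM preceded concentration-response testing (top 50 uM) of hits; inhibition expressed as signal loss versus DMSO.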

The list shows a part of the results, in another mix than the full data. Records with an inconclusive call do not appear. The source made the active and inactive calls. The calls were made as follows, unless noted: active = hit-call score of the fitted dose curve at least 0.9, where 1 is the maximum; inactive = score below 0.9.

Turning to `Cc1cccc([N+](=O)[O-])c1[N+](=O)[O-]`, the outcome in assay [1], in assay [2], in assay [3], in [4], in assay [5] and in assay [6] was inactive. Further, the result in assay [7] and in assay [8] was inactive.
As to `Cc1ccc([N+](=O)[O-])cc1[N+](=O)[O-]`, the outcome in assay [1], in assay [2], in assay [3], in assay [4], in assay [5] and in [6] was inactive.
On to `CC(C)OP(C)(=O)OC(C)C`, for which the result in [1], in assay [2], in assay [3], in assay [4], in assay [5] and in assay [6] was inactive. Besides, the AC50 in assay [9] was active: 2.44 µM.
Regarding `O=[N+]([O-])c1cccc([N+](=O)[O-])c1`, the outcome in assay [1], in assay [2], in assay [3], in assay [4], in assay [5] and in assay [6] was inactive. Also, the result in [8] was inactive.
On to `Cc1c([N+](=O)[O-])cccc1[N+](=O)[O-]`, for which the result in [1], in [2], in assay [3], in assay [4], in assay [6] and in [10] was inactive. Further, the concentration at half-maximal activity (AC50) in assay [5] was active: 0.182 µM.
With `Cc1ccc([N+](=O)[O-])c([N+](=O)[O-])c1`, the AC50 in assay [1] was active: 7.37 µM; in assay [5], active: 15.6 µM. Also, the outcome in [2], in assay [3], in [4] and in assay [6] was inactive.

The term AC50 denotes the concentration at which the activity in the assay is half-maximal.
